Source: patent publication US10167259B2, “Allosteric inhibitors of proteasome and methods of use thereof” (THE BOARD OF REGENTS OF THE UNIVERSITY OF TEXAS SYSTEM, priority 2013, dated 2019)

Legend:
[1] = test system: chymotrypsin-like activity of the core particle (CP; 20S); test: Inhibition of chymotrypsin-like peptidase activity of the proteasome core particle; settings: noncompetitive mechanism
[2] = test system: core proteasome activated by Rpt2 and Rpt5 tail peptides; test: Blocking activation of core proteasome chymotrypsin-like activity by Rpt2 and Rpt5 tail peptides; format: biochemical; settings: FIG. 1F
From the text: The grooves are utilized by Rpt2, Rpt3 and Rpt5 subunits that anchor the regulatory particle to the core particle (Lander, et al., 2009). The anchoring C-terminal tails of Rpt2 and Rpt5 subunits are responsible for core particle gate opening and activation (Lander, et al., 2009). Activation of the core by both Rpt2 and Rpt5 tails is affected by B1 (FIG. 2C). The groove accommodating the C-terminal tail of Rpt2 subunit may be a primary docking place for B1, or B1 may allosterically affect binding of Rpt2 C-terminal tail with an exceptionally high efficiency (FIG. 2D). In vitro reconstruction of the 26S proteasome assembly from the core particle (20S) and regulatory particle (19S) components is attenuated by the treatment with B1 (FIG. 2E).

Row | SMILES | Vmax, kinetic parameter of the inhibition of the chymotrypsin-like peptidase [1] | Prevention of activation of the core proteasome by Rpt5 tail peptide, compared with B1 [2]
1 | COc1cc(CCCOC(=O)C2CCCCN2C(=O)C(=O)C2CCCCC2)cc(OC)c1OC (centres unmarked) [B1] | 0.195 nanomoles of product per mg of proteasome per second | –
2 | COc1cc(CCCCCOC(=O)C2CCCCN2C(=O)C(=O)C2CCCCC2)cc(OC)c1OC (centres unmarked) [B5] | – | at least as good as the parent B1 compound
